Reference: patent US11828750B2, “Material for screening for compound acting on ION channel and use thereof” (PUBLIC UNIVERSITY CORPORATION NAGOYA CITY UNIVERSITY, priority 2016, dated 2023)
pIC50: −log10 of the molar value. Like-named read-outs stand apart in the source and are kept apart here.

The chains behind the UniProt entries cited, without tags or fusion partners.
UniProt Q9NPC2, whole entry: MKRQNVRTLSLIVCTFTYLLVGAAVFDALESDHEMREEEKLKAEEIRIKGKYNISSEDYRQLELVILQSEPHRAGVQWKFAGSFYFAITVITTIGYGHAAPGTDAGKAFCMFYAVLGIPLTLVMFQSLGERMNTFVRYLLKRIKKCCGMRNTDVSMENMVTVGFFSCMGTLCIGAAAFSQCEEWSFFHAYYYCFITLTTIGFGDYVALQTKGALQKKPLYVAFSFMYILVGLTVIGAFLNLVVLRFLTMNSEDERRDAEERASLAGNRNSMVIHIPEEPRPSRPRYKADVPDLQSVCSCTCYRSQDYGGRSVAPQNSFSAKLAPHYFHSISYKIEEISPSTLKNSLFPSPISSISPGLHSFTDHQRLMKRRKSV

Legend:
hTASK-1 = assay: Cell death assay in TASK-1 test cells (hTASK-1 transiently expressing Kir 2.1#mutated Nav cells); assay type: cell-based, human
Description: (§1) With the TREK-1 test cells, the culture medium was replaced with measurement buffer (137 mM NaCl, 5.9 mM KCl, 2.2 mM CaCl2, 1.2 mM MgCl2, 14 mM glucose, 10 mM HEPES (pH 7.4 with NaOH), this also applies in the following) and BaCl2 was added to provide 200 μM Ba ion, a Kir 2.1 inhibitor. This was followed by incubation for approximately 12 hours under conditions of 37° C., atmospheric pressure, and 5% CO2 and monitoring of cell death. Cell death was observed when 8-Br-cAMP, a TREK-1 inhibitor, was supplied. The measurement of cell death was carried out using the MTT method with reference to a paper by the present inventors (Yamazaki, D., et al., Am J Physiol Cell Physiol 300, C75-86, 2011). […]

TASK-3 [1] = target: T1, TASK-3 (Homo sapiens, UniProt Q9NPC2); assay: Cell death assay in TASK-3 test cells (hTASK-3 transiently expressing Kir 2.1#mutated Nav cells); assay type: cell-based
Description: as §1

TASK-3 [2] = target: T1, TASK-3; conditions: read-out: literature / reported IC50 for TASK-3; literature value (Coburn et al. 2012; Zou et al. 2010); cited from earlier work
[3] = in the presence of 200 μM Ba ion
[4] = read-out: IC50 value (induction of cell death), in the presence of 200 μM Ba ion

CCCC(=O)C1CCN(c2ncnc3c2CN(C(=O)c2ccc(-c4ccccc4)cc2)CC3)CC1
induction of cell death by inhibitor (hTASK-1; [3]): induction of cell death in a dose-dependent regime was observed
pIC50 (hTASK-1; [4]): 8.63
induction of cell death by inhibitor (TASK-3 [1]; [3]): induction of cell death in a dose-dependent regime was observed
pIC50 (TASK-3 [1]; [4]): 7.46
pIC50 (TASK-3 [2]): 7.46
